For the data set the following is noted: Silver oxide 10 μmole.

Like-named read-outs stand apart in the source and are kept apart here. Bounds are passed on as bounds.

With silver oxide, the Solubility result is reported as “Not soluble” (Ammonia 10 μmole, TC 0 μmole); over 90% Soluble (Ammonia 10 μmole, TC 10 μmole); “more than 90%” (Ammonia 10 μmole, TC 10 μmole, listed as silver oxide); “Soluble” (Ammonia 10 μmole, TC 20 μmole); “completely solubilize” (Ammonia 10 μmole, TC 20 μmole, listed as silver oxide); “Soluble” (Ammonia 100 μmole, TC 0 μmole).

These data come from patent US6843784B2, “Triclosan and silver compound containing medical devices” (priority 1999, dated 2005).
